Measured values as given in publication PMC9433822, “Enzymological and structural characterization of Arabidopsis thaliana heme oxygenase‐1” (FEBS Open Bio, 2022).

Molecular target: T1, AtHO-1 (Arabidopsis thaliana, UniProt O48782)
T1 construct: gene HO1; mature protein residues 55-282 (transit peptide removed), N-terminal His tag kept, pET-28a(+), E. coli BL21(DE3); two molecules in the asymmetric unit
T1 sequence (O48782 55-282): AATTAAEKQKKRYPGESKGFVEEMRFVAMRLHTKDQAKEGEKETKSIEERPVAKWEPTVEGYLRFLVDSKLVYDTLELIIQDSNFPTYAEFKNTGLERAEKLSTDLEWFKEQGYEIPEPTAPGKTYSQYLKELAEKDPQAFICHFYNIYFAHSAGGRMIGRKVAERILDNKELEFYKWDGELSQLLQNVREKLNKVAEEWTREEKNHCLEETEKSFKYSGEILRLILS
Assay: isothermal titration calorimetry
Format: binding

C=CC1=C(C)C2=Cc3c(C=C)c(C)c4[n]3[Fe]([Cl])[n]3c(c(C)c(CCC(=O)O)c3=CC3=NC(=C4)C(C)=C3CCC(=O)O)=CC1=N2 [heme]
Kd: 260 ± 10 nM
